One assay relates to SW620. As to the kind of experiment: Live/Dead cytotoxicity assay, hybridoma supernatant. The following applies: SW620 colon cancer cells, 5 days treatment.
In the next assay the test system is HT-29. The assay is described as above. Conditions: HT-29 colon cancer cells, 5 days treatment.

Turning to sodium azide, the “Cytotoxicity (%) SW620 Average” value in the assay with SW620 is recorded as 68%. Also, in the assay on HT-29, the “Cytotoxicity (%) HT-29 Average” value came out at 61%.

These data come from patent US20040141914A1, “Cancerous disease modifying antibodies” (priority 2003, published 2004).
